Data on two substances can be found in US20090181896A1, “Use of Natriuretic Peptide Receptor Antagonists to Treat Ocular, Otic and Nasal Edemetous Conditions” (ALCON RESEARCH, LTD., priority 2006, published 2009).

Assay [1] concerns the target T1, Type-A natriuretic peptide receptor in human conjunctival epithelial cells (Chang cells) (Homo sapiens, UniProt P16066).
T1 construct: the most relevant cells are Chang cells (Clone 1-5C-4 Wong-Kilbourne Derivative); These cells were obtained from ATCC; host or cells: Chang cells (Clone 1-5C-4 Wong-Kilbourne Derivative), human conjunctival epithelial cells
T1 sequence (P16066 33-1061): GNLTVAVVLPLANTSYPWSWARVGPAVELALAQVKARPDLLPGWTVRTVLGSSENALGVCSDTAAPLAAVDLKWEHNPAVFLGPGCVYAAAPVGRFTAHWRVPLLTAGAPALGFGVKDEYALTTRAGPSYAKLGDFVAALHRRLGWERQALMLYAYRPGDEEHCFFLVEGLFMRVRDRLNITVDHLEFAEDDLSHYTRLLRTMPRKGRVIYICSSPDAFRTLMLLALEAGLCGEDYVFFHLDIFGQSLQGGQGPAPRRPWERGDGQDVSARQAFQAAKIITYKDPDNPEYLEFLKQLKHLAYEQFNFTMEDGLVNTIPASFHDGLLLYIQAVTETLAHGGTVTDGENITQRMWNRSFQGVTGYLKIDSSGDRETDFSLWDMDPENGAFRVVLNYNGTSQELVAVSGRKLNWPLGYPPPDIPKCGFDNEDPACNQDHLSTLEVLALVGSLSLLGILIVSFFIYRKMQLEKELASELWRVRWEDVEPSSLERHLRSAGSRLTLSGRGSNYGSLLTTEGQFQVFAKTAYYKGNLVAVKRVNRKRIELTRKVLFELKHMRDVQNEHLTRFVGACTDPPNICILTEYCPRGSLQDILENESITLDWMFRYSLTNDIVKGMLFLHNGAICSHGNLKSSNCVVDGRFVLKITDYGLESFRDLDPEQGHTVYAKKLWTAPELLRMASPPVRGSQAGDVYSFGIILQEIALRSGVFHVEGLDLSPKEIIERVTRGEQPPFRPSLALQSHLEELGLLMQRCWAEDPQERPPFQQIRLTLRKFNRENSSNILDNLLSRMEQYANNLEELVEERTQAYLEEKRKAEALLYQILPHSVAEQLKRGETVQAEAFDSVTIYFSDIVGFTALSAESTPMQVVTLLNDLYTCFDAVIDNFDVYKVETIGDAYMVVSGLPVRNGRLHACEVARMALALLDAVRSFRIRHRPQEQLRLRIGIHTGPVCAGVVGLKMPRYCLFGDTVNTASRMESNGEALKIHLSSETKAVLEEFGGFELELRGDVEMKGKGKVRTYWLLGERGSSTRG
The assay is described as follows: Natriuretic peptide-stimulated cGMP production (guanylyl cyclase activity, EIA) in human conjunctival epithelial cells (Chang cells). Type of assay: cell-based. Particulars: read-out: Potency EC50, cGMP production via type-A receptor, mean ± SEM. As for the experimental part: These cells were obtained from ATCC (Manassas, Va.) and cultured in medium 199, containing 10% fetal bovine serum and […] Gentamicin. (obtained from Gibco/Invitrogen; Carlsbad, Calif.).
Cells were seeded in 48-wells culture plates. On reaching confluence, the cells were rinsed twice with 0.5 ml Dulbeco's modified Eagle's medium (DMEM)/F-12. […] Natriuretic peptides (American Peptide Co. Inc., Sunnyvale, Calif.; Peninsula Labs. San Carlos, Calif.) were then added at the end of this period and the reaction was allowed to proceed for another 15 minutes at 23° C. After aspiration of the reaction medium, ice cold 0.1 M acetic acid ([…], pH 3.5) was added for the termination of cGMP synthesis and cell lysis. Finally, ice-cold 0.1 M sodium acetate ([…], pH 11.5-12.0) was added to neutralize the samples before analysis of cGMP by an enzyme immunoassay (EIA) kit. cGMP production in the cells was measured using the EIA kit purchased from Amersham Pharmacia Biotech (Piscataway, N.J.). […] Data were analyzed using a non-linear, iterative curve-fitting computer program (IDBS, Surrey, UK) and Origin software package (Microcal Software, Inc., Northampton, Mass.) (Sharif et al. 1996; Crider et al. 2003).

Assay [2] deals with T2, Type-B natriuretic peptide receptor in human corneal epithelial cells (Homo sapiens, UniProt P20594).
T2 construct: primary human corneal epithelial cells (P-CEPI) were isolated from human donor eyes; endogenous in cells; host or cells: primary human corneal epithelial cells (P-CEPI) and SV40-immortalized human corneal epithelial cells (CEPI-17-CL4)
T2 sequence (P20594 23-1047): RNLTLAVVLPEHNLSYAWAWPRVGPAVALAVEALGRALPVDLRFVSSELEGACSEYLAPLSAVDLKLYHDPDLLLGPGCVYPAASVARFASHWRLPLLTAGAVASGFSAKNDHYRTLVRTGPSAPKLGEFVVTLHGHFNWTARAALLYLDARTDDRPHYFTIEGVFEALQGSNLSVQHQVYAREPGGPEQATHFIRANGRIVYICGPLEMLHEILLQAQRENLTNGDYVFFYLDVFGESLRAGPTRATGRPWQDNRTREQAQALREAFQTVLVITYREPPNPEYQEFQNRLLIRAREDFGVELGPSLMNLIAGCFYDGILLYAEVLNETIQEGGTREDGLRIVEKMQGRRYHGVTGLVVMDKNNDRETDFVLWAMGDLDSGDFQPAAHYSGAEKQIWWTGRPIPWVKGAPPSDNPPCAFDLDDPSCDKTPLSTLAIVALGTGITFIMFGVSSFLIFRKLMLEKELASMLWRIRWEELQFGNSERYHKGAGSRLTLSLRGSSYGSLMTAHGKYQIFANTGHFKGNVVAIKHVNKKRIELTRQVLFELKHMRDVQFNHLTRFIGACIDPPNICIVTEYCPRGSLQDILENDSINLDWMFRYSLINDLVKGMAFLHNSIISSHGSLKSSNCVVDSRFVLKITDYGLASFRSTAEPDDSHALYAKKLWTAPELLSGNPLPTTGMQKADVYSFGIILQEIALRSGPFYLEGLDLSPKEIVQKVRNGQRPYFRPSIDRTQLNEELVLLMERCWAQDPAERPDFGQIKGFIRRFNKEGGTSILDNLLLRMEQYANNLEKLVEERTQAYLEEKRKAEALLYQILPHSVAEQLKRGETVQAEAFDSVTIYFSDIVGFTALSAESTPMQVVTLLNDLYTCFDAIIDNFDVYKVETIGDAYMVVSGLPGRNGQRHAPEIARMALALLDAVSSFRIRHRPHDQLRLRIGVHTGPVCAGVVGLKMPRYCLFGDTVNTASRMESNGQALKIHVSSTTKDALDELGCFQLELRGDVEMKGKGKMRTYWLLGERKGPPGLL
The assay is described as follows: Natriuretic peptide-stimulated cGMP production (guanylyl cyclase activity, EIA) in human corneal epithelial cells. Type of assay: cell-based. Particulars: read-out: Potency EC50, cGMP production via type-B receptor, mean ± SEM.

Usually EC50 stands for the concentration at which the effect is half-maximal.

With C-type natriuretic peptide [CNP], the EC50 in assay [1] is > 10000 nM; in assay [2] it was 7 ± 2.6 nM.

For the substance brain natriuretic peptide [BNP], the EC50 in assay [1] worked out at 3.2 ± 2.2 nM; in assay [2], 54 ± 4 nM.
